Data from article PMC5362750, “Discovery of Potent, Selective, and Orally Bioavailable Small-Molecule Modulators of the Mediator Complex-Associated Kinases CDK8 and CDK19” (Journal of Medicinal Chemistry, 2016).

Assay: Thermodynamic solubility determination
Format: physicochemical
Settings: phosphate buffer, pH 7.4, TFA salt, pH 7.4, 37 °C; read-out: Solubility Therm.
Experimental: Thermodynamic Solubility Determination
The test substance is dissolved in the solvent system of interest at a constant temperature. HPLC determination of the concentration of the solute in the solution, which must not contain any undissolved particles, is used to quantify the solubility. Composition of standard buffer solutions:
Phosphate buffer pH 7.4: 50 mL of 0.2 M monobasic potassium phosphate solution were placed in a 200-mL volumetric flask, 39.1 mL of 0.2 M sodium hydroxide solution was added followed by water to the appropriate volume. Preparation of the standard solution: The test substance (generally 1 mg) was placed into an amber-glass volumetric flask and dissolved completely in a solution of acetonitrile/methanol (1:1; V/V). If the substance is not soluble in this solvent, a different solvent may be used. The target concentration is between 0.1 and 0.2 mg/mL. The standard solution and test sample (see below) use the same test substance. […] After 24 hours, the suspension was filtered and the concentration of dissolved substance determined by HPLC (see Chromatographic Conditions). If the substance has completely dissolved, the result is stated as > x μg/mL, calculated from the sample weight taken and the volume of solvent used. […]

solubility at 24 h: 6 µg/mL
Structure (SMILES): Cn1ncc2cc(-c3cnc(N)c(Cl)c3N3CCC4(CC3)CNC(=O)O4)ccc21 [Compound 110]
